For one substance, percent of binding affinity lost relative to wild type results are on record in article PMC7889650.

Sequences of proteins named here, by UniProt entry; tags and fusion partners are left off. Residues count along the entry.
UniProt Q9BZ95, 680-1437 K1206A/K1234A: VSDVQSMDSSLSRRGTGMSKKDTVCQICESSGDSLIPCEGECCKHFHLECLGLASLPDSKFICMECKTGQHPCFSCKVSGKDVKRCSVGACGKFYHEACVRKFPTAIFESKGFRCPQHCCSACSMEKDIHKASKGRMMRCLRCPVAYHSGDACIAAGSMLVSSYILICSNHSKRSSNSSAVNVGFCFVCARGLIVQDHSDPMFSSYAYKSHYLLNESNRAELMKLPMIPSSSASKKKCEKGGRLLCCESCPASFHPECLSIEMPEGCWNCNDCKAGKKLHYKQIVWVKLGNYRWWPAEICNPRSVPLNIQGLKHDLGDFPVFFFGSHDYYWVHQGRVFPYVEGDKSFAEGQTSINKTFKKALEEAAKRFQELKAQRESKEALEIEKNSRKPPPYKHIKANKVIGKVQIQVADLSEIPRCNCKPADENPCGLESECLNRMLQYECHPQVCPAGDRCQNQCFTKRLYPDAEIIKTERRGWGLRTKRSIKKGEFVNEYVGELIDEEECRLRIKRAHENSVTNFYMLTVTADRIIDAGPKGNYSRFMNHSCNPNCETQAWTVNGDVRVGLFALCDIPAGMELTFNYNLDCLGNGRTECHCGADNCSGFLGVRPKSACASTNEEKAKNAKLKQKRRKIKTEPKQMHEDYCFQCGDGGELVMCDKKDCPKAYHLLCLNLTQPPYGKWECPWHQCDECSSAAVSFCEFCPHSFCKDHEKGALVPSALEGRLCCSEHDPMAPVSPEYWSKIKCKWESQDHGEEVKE
UniProt Q9BZ95, 680-1437 R1287A/K1289A: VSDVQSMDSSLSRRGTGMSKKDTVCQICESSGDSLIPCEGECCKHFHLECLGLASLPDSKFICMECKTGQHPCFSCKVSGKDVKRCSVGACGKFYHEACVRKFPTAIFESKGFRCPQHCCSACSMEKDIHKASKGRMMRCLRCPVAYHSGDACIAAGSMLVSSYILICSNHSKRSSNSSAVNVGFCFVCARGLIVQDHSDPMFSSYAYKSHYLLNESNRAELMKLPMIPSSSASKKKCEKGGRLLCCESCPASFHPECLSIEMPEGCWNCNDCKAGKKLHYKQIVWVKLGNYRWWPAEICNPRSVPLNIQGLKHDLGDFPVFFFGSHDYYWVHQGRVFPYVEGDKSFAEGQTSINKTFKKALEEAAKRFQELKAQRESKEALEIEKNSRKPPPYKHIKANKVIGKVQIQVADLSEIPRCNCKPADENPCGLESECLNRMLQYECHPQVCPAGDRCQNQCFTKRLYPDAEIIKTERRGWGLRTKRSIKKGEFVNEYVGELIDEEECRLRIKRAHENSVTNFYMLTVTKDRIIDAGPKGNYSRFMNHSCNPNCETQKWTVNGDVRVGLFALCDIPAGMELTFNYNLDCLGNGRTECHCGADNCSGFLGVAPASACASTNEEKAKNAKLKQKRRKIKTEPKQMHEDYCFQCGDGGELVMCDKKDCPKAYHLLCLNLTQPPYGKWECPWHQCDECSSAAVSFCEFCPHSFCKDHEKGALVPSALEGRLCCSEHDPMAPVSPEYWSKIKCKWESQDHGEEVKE

Assay [1] deals with 6xHis-MBP-tagged NSD3 (680–1437) K1206A/K1234A (human) (UniProt Q9BZ95). Description: MST.
Assay [2] deals with 6xHis-MBP-tagged NSD3 (680–1437) R1287A/K1289A (human) (UniProt Q9BZ95). The experiment in a line: MST.

In the case of “187-bp nucleosome core particle (complex)”, the figures for the percent of binding affinity lost relative to wild type in assay [1] and in assay [2] were 78% and 68%, respectively.
